Here are results for one molecule from patent publication US20250360145A1 (published 2025).

Sequences of proteins named here, by UniProt entry; tags and fusion partners are left off. Residues count along the entry.
UniProt P07333, 20-972: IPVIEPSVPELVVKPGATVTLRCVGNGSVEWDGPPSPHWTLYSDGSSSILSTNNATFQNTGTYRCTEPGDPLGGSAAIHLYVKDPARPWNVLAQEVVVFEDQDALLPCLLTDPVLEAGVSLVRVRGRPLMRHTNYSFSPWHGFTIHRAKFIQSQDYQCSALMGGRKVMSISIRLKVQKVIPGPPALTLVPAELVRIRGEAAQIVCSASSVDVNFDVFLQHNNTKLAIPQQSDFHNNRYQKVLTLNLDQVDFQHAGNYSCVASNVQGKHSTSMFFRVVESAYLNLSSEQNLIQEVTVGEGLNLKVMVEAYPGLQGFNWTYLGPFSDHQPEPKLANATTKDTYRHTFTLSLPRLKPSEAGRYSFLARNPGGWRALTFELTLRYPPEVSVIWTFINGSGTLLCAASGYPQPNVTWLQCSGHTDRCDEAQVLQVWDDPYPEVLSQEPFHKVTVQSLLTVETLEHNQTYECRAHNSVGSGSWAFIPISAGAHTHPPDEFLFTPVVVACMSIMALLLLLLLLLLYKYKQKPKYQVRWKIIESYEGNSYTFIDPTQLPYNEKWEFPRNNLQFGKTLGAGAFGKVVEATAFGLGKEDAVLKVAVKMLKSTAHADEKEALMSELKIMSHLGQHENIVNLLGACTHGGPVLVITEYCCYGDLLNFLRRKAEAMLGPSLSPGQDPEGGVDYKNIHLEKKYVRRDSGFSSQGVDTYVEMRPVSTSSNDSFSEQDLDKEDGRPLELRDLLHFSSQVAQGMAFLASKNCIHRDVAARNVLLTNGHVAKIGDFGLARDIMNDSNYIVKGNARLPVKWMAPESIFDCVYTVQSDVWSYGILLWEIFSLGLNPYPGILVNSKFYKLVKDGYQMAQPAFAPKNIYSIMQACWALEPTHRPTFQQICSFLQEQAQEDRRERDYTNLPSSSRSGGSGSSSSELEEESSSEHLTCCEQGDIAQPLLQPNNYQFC

The assay has as its target CSF-1R (Homo sapiens (Human), UniProt P07333). In words: Biochemical HTRF kinase assay, CSF-1R.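 Further: enzyme incubated with inhibitor plus a substrate and ATP mix for one hour at room temperature before HTRF detection.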 The following applies: read-out: CSF-1R IC50.

Molecules are shown by their SMILES.

In general, IC50 refers to the concentration that inhibits the measured activity by half. For the molecule `COc1ccc(COc2ncc(Cc3ccnc4cc(Cl)cnc34)cc2OC)nc1` [Example 62, 3-chloro-8-((5-methoxy-6-((5-methoxypyridin-2-yl)methoxy)pyridin-3-yl)methyl)-1,5-naphthyridine], the IC50 worked out at 10.9 nM.
